These results are taken from US20220380459A1.

Amino acid sequences for entries named in this document (tags omitted). Residues count along the entry.
UniProt P20138, 18-259 S128N: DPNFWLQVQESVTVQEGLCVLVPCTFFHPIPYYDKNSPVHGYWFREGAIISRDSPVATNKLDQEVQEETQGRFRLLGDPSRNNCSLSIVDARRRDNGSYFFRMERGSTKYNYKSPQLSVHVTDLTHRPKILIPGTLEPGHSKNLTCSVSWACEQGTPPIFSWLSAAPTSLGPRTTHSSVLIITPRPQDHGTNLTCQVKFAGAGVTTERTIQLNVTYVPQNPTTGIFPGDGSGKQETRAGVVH

This assay concerns the target human CD33 S128N (human) (UniProt P20138). Kind of assay: SPR, Fab captured, 37C.

B1: ADI-11802 Fab (Fab, V domains shown)
VH: QVQLVQSGAEVKKPGASVKVSCKASGYTFSGYYMHWVRQAPGQGLEWMGMINPYGGSTRYAQKFQGRVTMTRDTSTSTVYMELSSLRSEDTAVYYCAREAADGFVGERYFDLWGRGTLVTVSS
VL: DIVMTQSPLSLPVTPGEPASISCRSSQSLLYSNGYNYLDWYLQKPGQSPQLLIYLGSNRASGVPDRFSGSGSGTDFTLKISRVEAEDVGVYYCMQDVALPITFGGGTKVEIK
The molecule B1 yielded a Kd of 0.809 nM, a koff of 0.00059 s⁻¹ and a kon of 662000 M⁻¹ s⁻¹.
